Measured values from patent publication US4499286A, “Derivatives of thienylacetic acid amides and their pharmaceutically acceptable acid salts and a process for the preparation thereof” (dated 1985).

Tested on: μ
Assay: pharmacological study (μ-specific analgetics)

SMILES	receptor specificity of analgesia
CN(C(=O)Cc1cc(Cl)c(Cl)s1)[C@@H]1CCCC[C@H]1N1CCCC1.Cl (relative stereo)	μ-specific analgetics
CN(C(=O)Cc1cc(Cl)sc1Cl)[C@@H]1CCCC[C@H]1N1CCCC1.Cl (relative stereo)	μ-specific analgetics
